The structures appear in SMILES notation. Where two headings read alike, the source gives them in different places.

The test system of one data set is HELA cells. Briefly: Endosome disruption assay (FITC-dextran, propidium iodide). Type of data set: cell-based. The following applies: 50 μg; 25 min plus 35 min at 37° C. As for the experimental part:
HeLa cells were plated in 6-well tissue culture dishes containing microscope slide coverslips and grown in Delbecco's Modified Eagle's Medium (DMEM)+10% fetal calf serum+penn/strep for 24–48 hours until 30–60% confluent. […] After 25 min, media containing FITC-dextran±melittin was removed, the cells were washed twice with 1 ml 37° C. DMEM lacking FITC-dextran and melittin, and cells were incubated for an additional 35 min at 37° C. in 1 ml fresh DMEM. In order to assess possible cell lysis caused by melittin, propidium iodide was added for the final 5 min of incubation. […] However, if the plasma membrane has been damaged, propidium iodide enters the cell where it will brightly stain the nucleus. To process slides for analysis, cells were washed 3 times with cold phosphate buffered saline (PBS), fixed in PBS+4% formaldehyde for 20–30 min at 4° C., and washed again 3 times with cold PBS. Excess liquid was drained from coverslips which were then mounted onto glass slides. Fluorescence was then analyzed on a Zeiss LSM510 confocal microscope. FITC was excited by a 488 nm argon laser and fluorescence emission was detected by a long pass 505 nm filter. […] For cells incubated with unmodified melittin near 100% cell death was observed as determined by propidium iodide staining of nuclei and loss of cells from the sample.

Data set [1] is described as follows: Hemolysis assay: peptides and derivatives as a function of pH. Type of data set: cell-based. The following applies: 30 minutes, 37 C, read-out: Percent Hemolysis. The procedure:
The membrane-disruptive activity of the peptide melittin and subsequent blocking of activity by anionic polymers was measured using a red blood cell (RBC) hemolysis assay. RBCs were harvested by centrifuging whole blood for 4 min. They were washed three times with 100 mM dibasic sodium phosphate at the desired pH, and resuspended in the same buffer to yield the initial volume. They were diluted 10 times in the same buffer, and 200 uL of this suspension was used for each tube. This yields 10 ? 8 RBCs per tube. Each tube contained 800 uL of buffer, 200 uL of the RBC suspension, and the peptide with or without polymer. Each sample was then repeated to verify reproducibility. The tubes were incubated for 30 minutes in a 37 C water bath. They were spun for 5 min at full speed in the microcentifuge. Lysis was determined by measuring tIe absorbance of the supernatant at 541 nm, reflecting the amount of hemoglobin that had been released into the supernatant. Percent hemolysis was calculated assuming 100% lysis to be measured by the hemoglobin released by the red blood cells in water; controls of RBCs in buffer with no peptide were also run.

Turning to `CC[C@H](C)[C@H](NC(=O)CNC(=O)/C(C)=C(/C)C(=O)O)C(=O)NCC(=O)N[C@@H](C)C(=O)N[C@H](C(=O)N[C@@H](CC(C)C)C(=O)N[C@@H](CCCCNC(=O)/C(C)=C(/C)C(=O)O)C(=O)N[C@H](C(=O)N[C@@H](CC(C)C)C(=O)N[C@H](C(=O)N[C@H](C(=O)NCC(=O)N[C@@H](CC(C)C)C(=O)N1CCC[C@H]1C(=O)N[C@@H](C)C(=O)N[C@@H](CC(C)C)C(=O)N[C@H](C(=O)N[C@@H](CO)C(=O)N[C@@H](Cc1c[nH]c2ccccc12)C(=O)N[C@H](C(=O)N[C@@H](CCCCNC(=O)/C(C)=C(/C)C(=O)O)C(=O)N[C@@H](CCCNC(=N)N)C(=O)N[C@@H](CCCCNC(=O)/C(C)=C(/C)C(=O)O)C(=O)N[C@@H](CCCNC(=N)N)C(=O)N[C@@H](CCC(N)=O)C(=O)N[C@@H](CCC(N)=O)C(N)=O)[C@@H](C)CC)[C@@H](C)CC)[C@@H](C)O)[C@@H](C)O)C(C)C)C(C)C` [DM-Melittin], the “endosomal release of FITC-dextran” value with HELA cells is reported as “release of dextran from endosomes”.
With `CC[C@H](C)[C@H](NC(=O)CNC(=O)CCC(=O)O)C(=O)NCC(=O)N[C@@H](C)C(=O)N[C@H](C(=O)N[C@@H](CC(C)C)C(=O)N[C@@H](CCCCNC(=O)CCC(=O)O)C(=O)N[C@H](C(=O)N[C@@H](CC(C)C)C(=O)N[C@H](C(=O)N[C@H](C(=O)NCC(=O)N[C@@H](CC(C)C)C(=O)N1CCC[C@H]1C(=O)N[C@@H](C)C(=O)N[C@@H](CC(C)C)C(=O)N[C@H](C(=O)N[C@@H](CO)C(=O)N[C@@H](Cc1c[nH]c2ccccc12)C(=O)N[C@H](C(=O)N[C@@H](CCCCNC(=O)CCC(=O)O)C(=O)N[C@@H](CCCNC(=N)N)C(=O)N[C@@H](CCCCNC(=O)CCC(=O)O)C(=O)N[C@@H](CCCNC(=N)N)C(=O)N[C@@H](CCC(N)=O)C(=O)N[C@@H](CCC(N)=O)C(N)=O)[C@@H](C)CC)[C@@H](C)CC)[C@@H](C)O)[C@@H](C)O)C(C)C)C(C)C` [Succinyl Melittin], the hemolysis in data set [1] (pH 5.4) is 5%; in data set [1] (pH 7.5), 2%.

The values above are taken from US7208314B2, “Compositions and methods for drug delivery using pH sensitive molecules” (priority 2002, dated 2007).
